Assay results as given in patent US3984415A, “1-Nitrophenylpyrido [2,3-d] pyrimidine-2,4(1H,3H)-diones” (Hisamitsu Pharmaceutical Co., Inc., priority 1973, dated 1976).

Tested on: dd-strain male mice
Conditions: i.p., 72 hours

Cc1ccccc1-n1c(C)nc2ccccc2c1=O [methaqualone, reference compound]
acute toxicity (lethal dose): 300 to 1000 mg/kg
